# Earlier results, collected in patent US20240374523A1, “STABILIZED APILIMOD COMPOSITIONS AND USES THEREOF” (Orphai Therapeutics Inc., priority 2021, published 2024).
# Conditions: rodent models (mice, rats), after gastrointestinal absorption (Patty's Industrial Hygiene and Toxicology); cited from earlier work
smiles,measurement,value
C=Cc1ccccn1 [2-vinyl pyridine],toxic effects,"weakness, ataxia, vasodilation, respiratory distress, and convulsions"
